Measurements reported in ChEMBL document CHEMBL3885861, “Open TG-GATES”.

Species: Rattus norvegicus
Test: Open TG-GATES - Regimen: Daily Repeat
Format: toxicity, organism-based, Sprague-Dawley
Design: regimen Daily Repeat, gender Male, age 6 weeks
Conditions: in vivo, po, route gavage; for PT: tissue Blood; for LIVER: tissue Liver
[1] = 0 mg/kg, 72 h, dose level Control, time 3 day
[2] = 0 mg/kg, 72 h, tissue Plasma, dose level Control, time 3 day
[3] = 0 mg/kg, […], dose level Control, time 7 day
[4] = 0 mg/kg, […], dose level Control, time 14 day
[5] = 0 mg/kg, […], dose level Control, time 28 day
[6] = 0 mg/kg, […], tissue Plasma, dose level Control, time 14 day
[7] = 0 mg/kg, […], tissue Plasma, dose level Control, time 28 day
[8] = 10 mg/kg, 72 h, tissue Plasma, dose level Low, time 3 day
[9] = 10 mg/kg, […], dose level Low, time 7 day
[10] = 10 mg/kg, […], dose level Low, time 14 day
[11] = 10 mg/kg, […], dose level Low, time 28 day
[12] = 10 mg/kg, […], tissue Plasma, dose level Low, time 7 day
[13] = 10 mg/kg, […], tissue Plasma, dose level Low, time 14 day
[14] = 30 mg/kg, 72 h, dose level Middle, time 3 day
[15] = 30 mg/kg, 72 h, tissue Plasma, dose level Middle, time 3 day
[16] = 30 mg/kg, […], dose level Middle, time 7 day
[17] = 30 mg/kg, […], dose level Middle, time 14 day
[18] = 30 mg/kg, […], dose level Middle, time 28 day
[19] = 30 mg/kg, […], tissue Plasma, dose level Middle, time 7 day
[20] = 30 mg/kg, […], tissue Plasma, dose level Middle, time 14 day
[21] = 30 mg/kg, […], tissue Plasma, dose level Middle, time 28 day
[22] = 100 mg/kg, 72 h, dose level High, time 3 day
[23] = 100 mg/kg, 72 h, tissue Plasma, dose level High, time 3 day
[24] = 100 mg/kg, […], dose level High, time 7 day
[25] = 100 mg/kg, […], dose level High, time 14 day
[26] = 100 mg/kg, […], dose level High, time 28 day
[27] = 100 mg/kg, […], tissue Plasma, dose level High, time 7 day
[28] = 100 mg/kg, […], tissue Plasma, dose level High, time 14 day

CN(C)CCC=C1c2ccccc2COc2ccccc21 [DOXEPIN]
PT [1]: 12.9 s | LIVER [1]: 10.9 g | Ca [2]: 10.9 mg/dL | Cl [2]: 106 meq/L | PT [3]: 13 s | PT [4]: 12.7 s | PT [5]: 12.8 s | LIVER [3]: 12.3 g | LIVER [4]: 13.5 g | LIVER [5]: 17.6 g | Ca (0 mg/kg, […], tissue Plasma, dose level Control, time 7 day): 10.9 mg/dL | Ca [6]: 10.7 mg/dL | Cl [6]: 106.8 meq/L | Ca [7]: 10.6 mg/dL | Cl [7]: 105.8 meq/L | PT (10 mg/kg, 72 h, dose level Low, time 3 day): 12.9 s | Ca [8]: 10.9 mg/dL | Cl [8]: 106.2 meq/L | PT [9]: 12.9 s | PT [10]: 12.9 s | PT [11]: 12.9 s | LIVER [9]: 12 g | LIVER [10]: 14.2 g | LIVER [11]: 15.1 g | Ca [12]: 10.9 mg/dL | Cl [12]: 106.4 meq/L | Ca [13]: 10.8 mg/dL | Cl [13]: 106.2 meq/L | TG [13]: 138.4 mg/dL | Cl (10 mg/kg, […], tissue Plasma, dose level Low, time 28 day): 107.6 meq/L | PT [14]: 13.1 s | LIVER [14]: 10.2 g | Ca [15]: 11.2 mg/dL | Cl [15]: 107.4 meq/L | PT [16]: 13 s | PT [17]: 12.9 s | PT [18]: 13.3 s | LIVER [16]: 11.9 g | LIVER [17]: 13.4 g | LIVER [18]: 16.3 g | Ca [19]: 10.9 mg/dL | Cl [19]: 105.8 meq/L | Ca [20]: 10.8 mg/dL | Cl [20]: 106.8 meq/L | BUN [21]: 17 mg/dL | Ca [21]: 10.4 mg/dL | Cl [21]: 106.8 meq/L | PT [22]: 13.2 s | LIVER [22]: 9.3 g | Ca [23]: 11.1 mg/dL | Cl [23]: 105.6 meq/L | PT [24]: 12.9 s | PT [25]: 13 s | PT [26]: 13.3 s | LIVER [24]: 11 g | LIVER [25]: 12.5 g | LIVER [26]: 14.2 g | Ca [27]: 11.1 mg/dL | Cl [27]: 104.6 meq/L | Ca [28]: 10.8 mg/dL | Cl [28]: 103.8 meq/L | Cl (100 mg/kg, […], tissue Plasma, dose level High, time 28 day): 104.4 meq/L
